From PubChem BioAssay (NCI)
This is a selection; strong and weak results do not stand in their true shares.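 Growth was measured after 48 h exposure to one concentration of compound in 96-well plates. Values under 10 count as active.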 Active and inactive are the calls of the source.

Assays:
Experiment in all cases: NCI-60 one-dose screen, 48 h (100 = growth as untreated, 0 = no growth, -100 = all killed)
Settings in all cases: 10 µM unless noted
[1] = tested on: SK-MEL-2 melanoma
[2] = tested on: EKVX NSCLC
[3] = tested on: SN12C renal
[4] = tested on: UO-31 renal
[5] = tested on: TK-10 renal
[6] = tested on: ACHN renal
[7] = tested on: CAKI-1 renal
[8] = tested on: A498 renal
[9] = tested on: HL-60(TB) leukemia
[10] = tested on: MOLT-4 leukemia
[11] = tested on: RPMI-8226 leukemia
[12] = tested on: OVCAR-8 ovarian
[13] = tested on: OVCAR-5 ovarian
[14] = tested on: OVCAR-4 ovarian
[15] = tested on: SK-OV-3 ovarian
[16] = tested on: IGROV1 ovarian
[17] = tested on: OVCAR-3 ovarian
[18] = tested on: HS 578T breast
[19] = tested on: CCRF-CEM leukemia
[20] = tested on: SR leukemia

Measured: growth

Nc1ccc([As](=O)(O)c2ccc(N)cc2)cc1
inactive: [1] 119% | [2] 105% | [3] 110% | [4] 75.4% | [5] 102% | [6] 92% | [7] 87.2% | [8] 111% | [9] 77.9% | [10] 125% | [11] 99.3% | [12] 100% | [13] 101% | [14] 118% | [15] 100% | [16] 84.5% | [17] 103% | [18] 144%

Nc1ccccc1[As](=O)(O)c1ccccc1
inactive: [1] 104% | [2] 107% | [3] 106% | [4] 71.3% | [5] 100% | [6] 107% | [7] 105% | [8] 113% | [9] 85.6% | [19] 42.8% | [10] 108% | [11] 90.4% | [12] 101% | [13] 116% | [14] 120% | [15] 110% | [16] 75% | [17] 112% | [18] 71.6%

COC(=O)C1(C)COP(=O)(Nc2ccccc2)OC1 (centres undefined)
inactive: [1] 96.3% | [2] 102% | [3] 98.4% | [4] 78.3% | [5] 98.1% | [6] 105% | [7] 103% | [8] 104% | [9] 89.1% | [19] 85.9% | [10] 75.8% | [12] 104% | [13] 108% | [14] 109% | [15] 97.4% | [16] 98.2% | [17] 107% | [18] 96.9%

O=[N+]([O-])c1ccc([N+](=O)[O-])cc1
inactive: [1] 124% | [2] 110% | [3] 100% | [4] 92.1% | [5] 116% | [6] 118% | [7] 94.5% | [8] 81.3% | [19] 126% | [10] 121% | [20] 97.5% | [11] 119% | [12] 94% | [13] 97.8% | [14] 107% | [15] 115% | [16] 112% | [17] 111% | [18] 97.9%

O=P1(N(CCCl)CCCl)OCCC2CCCCN21 (centres undefined)
inactive: [1] 99.2% | [2] 119% | [3] 99.5% | [4] 91.3% | [5] 114% | [6] 103% | [7] 103% | [8] 122% | [9] 63.7% | [19] 91.9% | [10] 101% | [20] 102% | [11] 91.1% | [12] 101% | [13] 116% | [15] 106% | [16] 107% | [17] 114% | [18] 116%

O=[As](O)(c1ccc(Cl)cc1)C1CCCCC1O (centres undefined)
inactive: [1] 105% | [2] 109% | [3] 96% | [4] 72.1% | [5] 117% | [6] 103% | [7] 93.9% | [8] 107% | [9] 42.1% | [19] 100% | [10] 82.4% | [20] 96% | [11] 59.9% | [12] 88.9% | [13] 90.3% | [14] 98.5% | [15] 101% | [17] 96.6% | [18] 96.3%

ClP1(Cl)=NP(Cl)(Cl)=NP(Cl)(Cl)=N1
inactive: [1] 97% | [2] 97.9% | [3] 101% | [4] 81.4% | [5] 99.6% | [6] 89.2% | [7] 92.4% | [8] 118% | [9] 84.9% | [19] 102% | [10] 93% | [11] 89.2% | [12] 100% | [13] 90.6% | [14] 124% | [15] 109% | [16] 101% | [17] 119% | [18] 77.2%

CN(C)P(=O)(N(C)C)n1c(Nc2ccccc2)nnc1-c1ccccc1
inactive: [1] 110% | [2] 102% | [3] 95.7% | [4] 86.6% | [5] 108% | [6] 103% | [7] 100% | [8] 88.6% | [9] 102% | [19] 99.1% | [10] 93.9% | [20] 97.7% | [11] 96.4% | [13] 98.4% | [14] 91.9% | [15] 105% | [16] 109% | [17] 104% | [18] 99.7%

COC(=O)c1ccc(N2CCOP2(=O)Cl)cc1O (centres undefined)
inactive: [1] 105% | [2] 101% | [3] 108% | [4] 89.3% | [5] 105% | [6] 99.8% | [7] 104% | [8] 108% | [9] 89.6% | [19] 87.1% | [10] 92.5% | [11] 93.8% | [12] 100% | [13] 97.1% | [14] 103% | [15] 112% | [16] 110% | [17] 116% | [18] 110%
